Results taken from ChEMBL document CHEMBL1177660, “Discovery of novel purine derivatives with potent and selective inhibitory activity against c-Src tyrosine kinase” (Bioorg Med Chem, 2010).

Protein sequences, listed by entry. Tags and fused reporters are not part of them. Lines headed by an entry give the natural chain unless they say otherwise; changes in a name come on top.
UniProt P21802, whole entry: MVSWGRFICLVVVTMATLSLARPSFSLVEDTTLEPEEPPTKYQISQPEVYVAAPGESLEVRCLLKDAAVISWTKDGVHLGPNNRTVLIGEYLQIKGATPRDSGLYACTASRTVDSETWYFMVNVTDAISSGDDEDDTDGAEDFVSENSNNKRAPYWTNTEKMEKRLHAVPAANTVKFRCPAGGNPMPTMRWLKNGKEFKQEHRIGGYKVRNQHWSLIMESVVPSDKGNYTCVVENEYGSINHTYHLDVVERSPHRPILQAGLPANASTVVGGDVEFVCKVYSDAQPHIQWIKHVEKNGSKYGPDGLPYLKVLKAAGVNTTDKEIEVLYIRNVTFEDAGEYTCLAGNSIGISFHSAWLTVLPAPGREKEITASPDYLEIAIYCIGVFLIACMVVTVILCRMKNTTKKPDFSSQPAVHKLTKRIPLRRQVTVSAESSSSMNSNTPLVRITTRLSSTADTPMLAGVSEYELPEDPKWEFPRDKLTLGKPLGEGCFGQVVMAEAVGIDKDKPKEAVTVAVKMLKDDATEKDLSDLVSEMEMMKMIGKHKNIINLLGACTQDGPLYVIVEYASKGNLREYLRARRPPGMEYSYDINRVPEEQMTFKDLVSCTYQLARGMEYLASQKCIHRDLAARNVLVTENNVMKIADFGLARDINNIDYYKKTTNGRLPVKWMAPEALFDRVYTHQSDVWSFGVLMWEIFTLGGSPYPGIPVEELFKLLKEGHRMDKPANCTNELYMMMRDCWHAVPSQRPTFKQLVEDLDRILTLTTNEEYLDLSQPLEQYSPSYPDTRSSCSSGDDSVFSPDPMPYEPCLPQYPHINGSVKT
UniProt P08581: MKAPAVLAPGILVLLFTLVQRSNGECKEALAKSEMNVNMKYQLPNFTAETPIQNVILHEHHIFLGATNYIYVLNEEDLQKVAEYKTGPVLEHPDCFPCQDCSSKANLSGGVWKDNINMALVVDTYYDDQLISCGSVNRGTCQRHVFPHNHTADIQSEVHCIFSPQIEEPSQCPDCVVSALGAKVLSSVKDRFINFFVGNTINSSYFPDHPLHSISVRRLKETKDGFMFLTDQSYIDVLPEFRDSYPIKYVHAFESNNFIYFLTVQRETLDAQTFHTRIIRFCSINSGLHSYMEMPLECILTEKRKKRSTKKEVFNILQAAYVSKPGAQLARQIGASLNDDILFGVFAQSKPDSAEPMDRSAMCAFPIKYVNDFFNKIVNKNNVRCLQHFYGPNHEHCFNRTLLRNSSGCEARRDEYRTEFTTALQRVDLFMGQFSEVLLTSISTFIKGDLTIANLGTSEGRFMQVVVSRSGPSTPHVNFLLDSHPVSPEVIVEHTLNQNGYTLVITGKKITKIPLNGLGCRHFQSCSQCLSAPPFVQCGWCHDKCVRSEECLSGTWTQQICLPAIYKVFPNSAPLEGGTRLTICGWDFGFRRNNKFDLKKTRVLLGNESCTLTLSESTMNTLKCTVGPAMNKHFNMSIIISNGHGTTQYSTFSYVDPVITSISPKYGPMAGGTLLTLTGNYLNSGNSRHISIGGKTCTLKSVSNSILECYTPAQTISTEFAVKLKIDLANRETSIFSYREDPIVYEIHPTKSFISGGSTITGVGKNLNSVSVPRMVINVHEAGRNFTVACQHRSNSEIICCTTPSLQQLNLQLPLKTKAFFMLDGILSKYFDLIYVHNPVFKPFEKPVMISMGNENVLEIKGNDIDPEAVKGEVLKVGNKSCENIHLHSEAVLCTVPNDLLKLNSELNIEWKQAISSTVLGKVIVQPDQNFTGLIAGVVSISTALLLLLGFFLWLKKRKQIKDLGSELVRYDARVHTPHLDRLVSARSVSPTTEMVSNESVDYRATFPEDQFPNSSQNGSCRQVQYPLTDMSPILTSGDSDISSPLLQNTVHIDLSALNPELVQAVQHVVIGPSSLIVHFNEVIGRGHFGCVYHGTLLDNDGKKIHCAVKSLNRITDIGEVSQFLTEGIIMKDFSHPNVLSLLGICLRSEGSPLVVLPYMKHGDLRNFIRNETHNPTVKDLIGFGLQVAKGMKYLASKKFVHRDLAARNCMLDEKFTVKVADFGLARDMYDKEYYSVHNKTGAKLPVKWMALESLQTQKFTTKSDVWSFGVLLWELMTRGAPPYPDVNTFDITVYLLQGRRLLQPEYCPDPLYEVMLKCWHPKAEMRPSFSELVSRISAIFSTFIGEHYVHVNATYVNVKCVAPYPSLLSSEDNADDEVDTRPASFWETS

Experiments:
[1] = molecular target: Fibroblast growth factor receptor 2 (Homo sapiens, UniProt P21802); test: Inhibition FGFR2
[2] = molecular target: Hepatocyte growth factor receptor (Homo sapiens, UniProt P08581); test: Inhibition cMet

## NS(=O)(=O)c1ccc(Nc2nc(N3CCOCC3)nc3[nH]cnc23)cc1
[1]
  IC50: > 10 µM
[2]
  IC50: 10 µM
